Screening data deposited in PubChem by Broad Institute.
esBAF inh – blocks esBAF chromatin remodeling in mouse ES cells | Bmi1-luciferase knock-in reporter, 24 h; 100% = twice the neutral-well signal | reporter increase, % at 12.5 µM | hit rate 2% among 350,000 | AID 602393; in the data active = activation above about 40%; inconclusive = no clear call, values can overlap the other calls;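 also: 0% = median of the plate's neutral control wells and 100% = double that signal; a rise in the Bmi1 reporter signal indicates esBAF inhibition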
Wnt act – activates Wnt/beta-catenin signaling in a reporter cell assay; activator, plate reader; activation, % at 9.35 µM; hit rate 1.2% among 300,000; in the data active = activation above about 30%, passing the limit was not always enough; inconclusive = no clear call, values can overlap the other calls;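 also: 0% = neutral control wells and 100% = positive control wells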
miR-122 sensor – miR-122 inhibition in Huh7 cells | Huh7 miR-122 Renilla luciferase sensor, 48 h; neutral wells = 0, positive control = 100 | AID 602342 | activation (reporter increase), % at 12.5 µM | hit rate 0.3% among 340,000;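 active = mean replicate activation score at least 90 and every replicate individually at or above 90; inconclusive = only one of the two criteria met; inactive = neither criterion met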;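 also: higher luciferase means less miR-122 activity so hits act as miR-122 inhibitors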
PglD inh – PglD (C. jejuni) enzyme inhibition; purified PglD enzyme, DTNB colorimetric CoA detection; inhibition, % at 12.5 µM; hit rate 0.098% among 360,000; in the data active = inhibition above about 16%, passing the limit was not always enough; inconclusive = no clear call, values can overlap the other calls
UUG fidelity – alters start codon recognition fidelity in yeast; S. cerevisiae UUG-firefly luciferase reporter, luminescence/redox ratio; activity score, % at 18.7 µM; hit rate 0.13% among 350,000;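 active = replicate mean at a twofold rise or more, about +100% in these data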;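 also: firefly luciferase made from a UUG start codon reports start codon fidelity; reporter light over untreated wells divided by growth signal over untreated wells; some hits fall short of that in this replicate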
MITF TRPM1 HTS – increases MITF-driven TRPM1 promoter luciferase signal. SK-MEL-5 TRPM1-promoter luciferase, 24 h; % of positive control, neutral wells = 0. activation, % at 12.5 µM. hit rate 0.75% among 300,000. AID 588334;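 active = mean activation of at least 80% with every replicate also reaching 80%; inconclusive = mean reaches 80% but some replicate falls short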;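 also: 0% = neutral control wells and 100% = parthenolide positive control wells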
Starred values were filed as active, the others as inactive; ? = inconclusive; . = not tested or not shown; [ ] = remark or other dose. Only some compounds are listed: those with a hit (about 2.8% of all), similar ones and a draw of the others.

esBAF inh	Wnt act	miR-122 sensor	PglD inh	UUG fidelity	MITF TRPM1 HTS	canonical_smiles
-19	.	-6[16.7 µM]	0	-12	.	C[C@H](CO)N1C[C@H](C)[C@H](CN(C)S(=O)(=O)c2ccc(F)cc2)Oc2ncc(C#CC3CCCCC3)cc2C1=O
30	1	-1	6	-1	13	CCn1nnc(NC(=O)c2ccc(-c3ccccc3[N+](=O)[O-])o2)n1
103*	109*	4	2	-4	26	CC(=O)c1cccc(NC(=O)c2ccc(-c3ccccc3[N+](=O)[O-])o2)c1
57*	-3	0	7	-8	.	Cc1cc(NC(=O)c2ccc(-c3ccccc3[N+](=O)[O-])o2)no1
9	.	5[16.7 µM]	3	5	.	O=C(C[C@H]1C[C@H]2c3cc(NC(=O)Cc4ccncc4)ccc3O[C@H]2[C@@H](CO)O1)NCc1ccc(-c2ccccc2)cc1
79*	.	-12	1	-1	107*	CCOC(=O)c1cnc(SCc2ccccc2)nc1N
.	27	.	.	.	37	Cc1[nH]n(C(N)=S)c(=O)c1N=Nc1cccc(C(F)(F)F)c1
35	40*	.	5	-21	41	Cc1[nH]n(C(N)=S)c(=O)c1N=Nc1ccc(Br)cc1
57*	19	0	1	-25	46	Cc1ccc(N=Nc2c(C)[nH]n(C(N)=S)c2=O)cc1
53*	0	-5	1	-35	.	Cc1[nH]n(C(N)=S)c(=O)c1N=Nc1ccc(S(=O)(=O)N2CCCC2)cc1
0	.	-9[16.7 µM]	-1	0	.	COc1ccc(NC(=O)N(C)C[C@@H]2OCCCC[C@H](C)Oc3ccc(NS(=O)(=O)c4ccccc4)cc3C(=O)N([C@H](C)CO)C[C@H]2C)cc1
-1	.	-1[16.7 µM]	-3	1	.	CNC[C@@H]1Oc2ncc(-c3ccccc3F)cc2C(=O)N([C@@H](C)CO)C[C@@H]1C
-3	.	.	-1	13	.	O=C(CCN1CCCCC1)NCC[C@@H]1CC[C@@H](NC(=O)c2ccc(F)cc2)[C@H](CO)O1
50*	11	0	1	-7	55	COc1ccccc1C(=O)C1CCCN(C(=O)c2ccccc2C(C)=O)C1 (stereo not drawn)
-3	.	-4[16.7 µM]	-9	.	.	C[C@H](NC(=O)C[C@@H]1CC[C@H](NC(=O)c2cccnc2)[C@H](CO)O1)c1ccccc1
48*	.	-13	1	-6	55	O=C1/C(=C/c2ccc(N3CCCC3)cc2)NC(=S)N1C1CC1
85*	54*	-30	.	.	79	Cc1cc(N2CCCC2)ccc1/C=C1\NC(=S)N(C)C1=O
23	.	-2	-2	0	17	CN1C(=O)c2ccc(N3CCCC3)cc2C1=O
0	-1	2	4	-12	-5	CCC(=O)Nc1ccc(Br)cn1
-1	0	1	-2	-13	9	O=C(Nc1ccccc1C(=O)Nc1ccc(Br)cn1)c1ccccc1Cl

One compound at a time, from the list above. Screens in order: esBAF inh	Wnt act	miR-122 sensor	PglD inh	UUG fidelity	MITF TRPM1 HTS
Listed for CC(=O)c1cccc(NC(=O)c2ccc(-c3ccccc3[N+](=O)[O-])o2)c1 → 103*	109*	4	2	-4	26
Listed for O=C(Nc1ccccc1C(=O)Nc1ccc(Br)cn1)c1ccccc1Cl → -1	0	1	-2	-13	9
Listed for CCOC(=O)c1cnc(SCc2ccccc2)nc1N → 79*	.	-12	1	-1	107*
Listed for CNC[C@@H]1Oc2ncc(-c3ccccc3F)cc2C(=O)N([C@@H](C)CO)C[C@@H]1C → -1	.	-1[16.7 µM]	-3	1	.

(more compounds)
esBAF inh	Wnt act	miR-122 sensor	PglD inh	UUG fidelity	MITF TRPM1 HTS	canonical_smiles
52*	14	.	3	-13	41	O=C(Nc1nccs1)c1ccc(Cl)s1
?	.	9	-1	-8	96*	Cc1ccccc1C(=O)Nc1ccc(Br)cn1
11	8	-3	-3	-2	3	O=C(Nc1ccon1)c1ccc(Br)s1
45	38*	22	8	-14	21	O=C(Nc1ccc(Br)cn1)c1ccc(Br)s1
60*	35*	24	2	-5	44	O=C(Nc1ccc(Br)cn1)c1ccc(Cl)s1
-5	.	3[16.7 µM]	-4	.	.	CN1CCN(C(=O)C[C@H]2C[C@H]3c4cc(NC(=O)Cc5ccncc5)ccc4O[C@H]3[C@@H](CO)O2)CC1
-1	.	-3[16.7 µM]	2	-14	.	C[C@H]1CN([C@@H](C)CO)C(=O)c2cc(C#CC3CC3)cnc2O[C@@H]1CN(C)Cc1ccccn1
-2	.	16[16.7 µM]	3	.	.	CO[C@@H]1CN(C)C(=O)c2ccc(NC(=O)c3ccccc3)cc2OC[C@H](C)N(C(=O)C2CC2)C[C@H]1C
-8	.	34[16.7 µM]	0	22	.	C[C@H]1CN([C@@H](C)CO)S(=O)(=O)c2ccc(C3=CCCC3)cc2O[C@@H]1CN(C)Cc1ccccc1F
-1	.	0[16.7 µM]	-4	-2	.	C[C@H]1CCCCO[C@H](CN(C)S(=O)(=O)c2ccc(Cl)cc2)[C@@H](C)CN([C@@H](C)CO)C(=O)c2cc(NC(=O)CCC(F)(F)F)ccc2O1
3	.	-6[16.7 µM]	7	.	.	CCNC(=O)[C@@H]1N[C@@H]2c3ccc(-c4cccc(C(=O)N(C)C)c4)c(=O)n3C[C@@H]2[C@H]1CO
